According to publication PMC9959048, “Lipidation of Naturally Occurring α-Helical Antimicrobial Peptides as a Promising Strategy for Drug Design” (International Journal of Molecular Sciences, 2023):
Values after ≈ are worked out from the molar mass of the structure shown.

Tests used:
C. parapsilosis CCM 8260 = assay type: cell-based, Candida parapsilosis; conditions: RPMI-1640 with MOPS and 2% glucose, inoculum 5 × 10^3 CFU/mL, 24 h, 35 °C, absorbance 600 nm, triplicate
Description: (§1) The evaluation of the antimicrobial activity of the synthesized lipopeptides was performed against the following reference bacterial and fungal strains: Staphylococcus aureus PCM 1650, Staphylococcus aureus PCM 2054, Staphylococcus epidermidis PCM 521, Staphylococcus epidermidis PCM 2118, Escherichia coli PCM 2057, Candida albicans PCM 2566, Candida glabrata CCM 8270, Candida krusei CCM 8271, Candida parapsilosis CCM 8260.
(§2) For the initial cultivation of the bacteria and fungi, Luria-Bertani broth (LB, Biomaxima, Lublin, Poland) and Sabouraud Dextrose broth (SB, Biomaxima, Lublin, Poland) were used, respectively. Antimicrobial properties of the compounds were analyzed through the determination of MIC (minimal inhibitory concentrations) by my means of the serial micro-dilution technique according to the guidelines of Clinical & Laboratory Standard Institute (CLSI) established for aerobic bacteria and yeasts. […]
(§3) The experiments were carried out for 24 h at 37 and 35 °C for the bacteria and fungi, respectively. Then, the absorbance was measured at 600 nm for each well of the 96-well plate using a microplate reader (Sunrise TM, Tecan Trading AG, Männedorf, Switzerland). Based on the obtained results, the degree of inhibition of the growth of microorganisms (expressed in %) in the presence of the tested compounds range was determined with respect to the control probes. […]

C. glabrata CCM8270 = assay type: cell-based, Candida glabrata; conditions: RPMI-1640 with MOPS and 2% glucose, inoculum 5 × 10^3 CFU/mL, 24 h, 35 °C, absorbance 600 nm, triplicate
Description: as §1, §2, §3

E. coli PCM2057 = assay type: cell-based, Escherichia coli; conditions: Mueller–Hinton broth, inoculum 5 × 10^5 CFU/mL, 24 h, 37 °C, absorbance 600 nm, triplicate
Description: as §1, §2, §3

C. krusei CCM8271 = assay type: cell-based, Candida krusei; conditions: RPMI-1640 with MOPS and 2% glucose, inoculum 5 × 10^3 CFU/mL, 24 h, 35 °C, absorbance 600 nm, triplicate
Description: as §1, §2, §3

C. albicans PCM2566 = assay type: cell-based, Candida albicans; conditions: RPMI-1640 with MOPS and 2% glucose, inoculum 5 × 10^3 CFU/mL, 24 h, 35 °C, absorbance 600 nm, triplicate
Description: as §1, §2, §3

S. aureus PCM2054 = assay type: cell-based, Staphylococcus aureus; conditions: Mueller–Hinton broth, inoculum 5 × 10^5 CFU/mL, 24 h, 37 °C, absorbance 600 nm, triplicate
Description: as §1, §2, §3

S. epidermidis PCM2118 = assay type: cell-based, Staphylococcus epidermidis; conditions: Mueller–Hinton broth, inoculum 5 × 10^5 CFU/mL, 24 h, 37 °C, absorbance 600 nm, triplicate
Description: as §1, §2, §3

S. epidermidis PCM521 = assay type: cell-based, Staphylococcus epidermidis; conditions: Mueller–Hinton broth, inoculum 5 × 10^5 CFU/mL, 24 h, 37 °C, absorbance 600 nm, triplicate
Description: as §1, §2, §3

SMILES: CC(C)C[C@H](NC(=O)[C@H](CCCCN)NC(=O)[C@H](CCCCN)NC(=O)[C@H](Cc1ccccc1)NC(=O)[C@H](Cc1ccccc1)NC(=O)[C@H](CCCCN)NC(=O)[C@H](CCCCN)NC(=O)[C@H](Cc1ccccc1)NC(=O)[C@H](CCCNC(=N)N)NC(=O)[C@@H](N)CCCCN)C(=O)N[C@@H](CCCCN)C(N)=O [ATRA-1, reference compound]
- MIC, C. parapsilosis CCM 8260 (C. parapsilosis CCM 8260): 50 µg/mL (≈ 33.4 µM)
- MIC, C. glabrata CCM8270 (C. glabrata CCM8270): >50 µg/mL
- MIC, E. coli PCM2057 (E. coli PCM2057): >50 µg/mL
- MIC, C. krusei CCM8271 (C. krusei CCM8271): 50 µg/mL (≈ 33.4 µM)
- MIC, C. albicans PCM2566 (C. albicans PCM2566): >50 µg/mL
- MIC, S. aureus PCM2054 (S. aureus PCM2054): >50 µg/mL
- MIC, S. epidermidis PCM2118 (S. epidermidis PCM2118): 50 µg/mL (≈ 33.4 µM)
- MIC, S. epidermidis PCM521 (S. epidermidis PCM521): 25 µg/mL (≈ 16.7 µM)
